# Experimental data reported in PubChem BioAssay AID1510 (The Scripps Research Institute Molecular Screening Center, 2009).
# The chains behind the UniProt entries cited, without tags or fusion partners. Where a name states a change or a piece, a line headed by the entry shows the natural chain unless it says otherwise.
# UniProt O95977: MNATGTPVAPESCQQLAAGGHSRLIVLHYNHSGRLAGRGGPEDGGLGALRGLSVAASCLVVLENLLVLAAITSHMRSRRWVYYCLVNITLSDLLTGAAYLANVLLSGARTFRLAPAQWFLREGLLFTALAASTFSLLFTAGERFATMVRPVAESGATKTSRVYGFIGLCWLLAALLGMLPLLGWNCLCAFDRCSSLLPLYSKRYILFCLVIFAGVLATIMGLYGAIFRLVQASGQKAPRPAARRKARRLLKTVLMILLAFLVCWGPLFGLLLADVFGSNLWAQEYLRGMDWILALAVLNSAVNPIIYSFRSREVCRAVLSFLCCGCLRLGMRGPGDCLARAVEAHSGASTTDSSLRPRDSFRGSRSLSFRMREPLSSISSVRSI
# The list shows a part of the results, in another mix than the full data. The source made the active and inactive calls. Rule as the data show it: active = inhibition above about 29%; inactive = the rest.
# Molecular target: Sphingosine 1-phosphate receptor 4 (Homo sapiens) (UniProt O95977)
# Assay: blockers of human S1P4 receptor – cell-based, primary screen (AID 1510);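 also: 0% = wells stimulated with agonist and 100% = vehicle wells without agonist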
# Settings: S1P4-expressing cells, antagonist mode, reporter read-out; at 4.98 µM; stronger effect = higher value
row,SMILES,inhibition
1,COP1(=S)c2c(C)nn(CCC#N)c2N=C(c2ccc(F)cc2)N1C (stereo unspecified),inactive: -17.9%
2,O=C(COc1ccccc1)OC1CN2CCC1CC2 (stereo unspecified),inactive: -1.84%
3,CCOC(=O)c1ccc(NC(=O)C(C)(CCl)SC)cc1 (stereo unspecified),inactive: 8.69%
4,CCC(C)N(CC(C)C)C(=S)SC(NC(C)=O)C(Cl)(Cl)Cl (stereo unspecified),inactive: -2.16%
5,CCOC(=O)Nc1ccc([As](=O)(O)O)c(O)c1,inactive: -3.14%
6,Cc1cc(SC(NC(=O)c2ccccc2)C(Cl)(Cl)Cl)nc(C(C)C)n1 (stereo unspecified),inactive: -0.23%
7,CCOC(=O)Nc1cccc([As](=O)(O)O)c1,inactive: 3.95%
8,O=P(Nc1ccccn1)(c1cccc2ccccc12)c1cccc2ccccc12,inactive: 6.54%
9,Cc1cc(SC(NC=O)C(Cl)(Cl)Cl)ncn1 (stereo unspecified),inactive: 0.45%
10,O=[N+]([O-])c1ccc(Nc2ccc(Oc3ccc([N+](=O)[O-])cc3[N+](=O)[O-])cc2)c([N+](=O)[O-])c1,inactive: 6.96%
11,C[As](=O)(O)c1cccc(C(=O)O)c1,inactive: 0.28%
12,O=[As](O)(c1ccc(O)cc1)c1ccccc1O,inactive: -0.67%
13,Cc1ccc(OP(=O)(Nc2ccc([N+](=O)[O-])cn2)Oc2ccc(C)cc2)cc1,inactive: 4.95%
14,Cc1ccc2nc3c(c(C)c2c1)CC(C(Cl)Cl)S3 (stereo unspecified),inactive: 3.83%
15,ClCCSc1nnc(-c2cccnc2)o1,inactive: 6.44%
16,CC(C)c1ccc(OP(=O)(Nc2ccccn2)Oc2ccccc2F)cc1 (stereo unspecified),inactive: 1.22%
17,O=[N+]([O-])c1cc([N+](=O)[O-])c(-c2ccn[nH]2)s1,inactive: -14.1%
18,CC(C)NC(=O)NP(=O)(Oc1ccccc1)Oc1ccccc1,inactive: 2.08%
19,CCN(CC)C(=S)SC(NC=O)C(Cl)(Cl)Cl (stereo unspecified),inactive: -8.39%
20,Cc1c2c(nc3ccccc13)SC(C(Cl)Cl)C2 (stereo unspecified),inactive: -13.7%
21,Cc1cc(=O)[nH]c(N[N+](=O)[O-])n1,inactive: -2.44%

row,SMILES,inhibition
1,O=C(OC1CN2CCC1CC2)C12CC3CC(CC(C3)C1)C2 (stereo unspecified),inactive: -6.64%
2,COc1cc(I)ccc1[As](=O)(O)O,inactive: 1.69%
3,COc1ccc2nc(NP(=O)(c3ccccc3)c3ccccc3)sc2c1,inactive: -10.7%
4,COc1ccc(N/C(=N/P(=O)(N2CCOCC2)N2CCOCC2)N2CCOCC2)cc1,inactive: 20.1%
5,O=C(OC1CN2CCC1CC2)c1ccc(Cl)cc1 (stereo unspecified),inactive: 2.87%
6,O=[As](O)(O)c1cccnc1,inactive: 7.58%
7,COc1cc(C(=O)NCC2(N3CCOCC3)CCCCC2)cc(Cl)c1OC(C)C,inactive: 9.88%
8,Cc1cccc(OCC(=O)OC2CN3CCC2CC3)c1 (stereo unspecified),inactive: -1.14%
9,O=[As](O)(c1cccc(O)c1)c1cccc(O)c1,inactive: -5.26%
10,Nc1cccc2c([As](=O)(O)O)cccc12,inactive: -9.83%
11,Cc1ccc(NCCc2c([N+](=O)[O-])cc([N+](=O)[O-])cc2[N+](=O)[O-])cc1,inactive: -3.69%
12,CCCOP(=S)(Nc1nc(N)cc(=O)[nH]1)OCCC,inactive: 9.09%
13,CCOP(=O)(Nc1cccc2ccccc12)OCC,inactive: -8.43%
14,COc1cc(C2NCCC3(OCCO3)C2(C)C)cc(OC)c1OC (stereo unspecified),inactive: -20%
15,O=P(Nc1nccs1)(Oc1ccccc1)Oc1ccccc1,inactive: -3.71%
16,O=P(Nc1nccs1)(c1ccccc1)c1nc2ccccc2s1 (stereo unspecified),inactive: -0.6%
17,CCOP1(=S)c2c(C)nn(CCC#N)c2N=C(c2ccccc2F)N1C (stereo unspecified),inactive: 6.27%
18,CS(=O)(=O)c1cc([N+](=O)[O-])c2no[n+]([O-])c2c1,inactive: -5.3%
19,Nc1ccccc1[As](=O)(O)c1ccccc1,inactive: -2.97%
20,O=C(O)COc1ccc([As](=O)(O)O)cc1[N+](=O)[O-],inactive: 5.63%
21,CCOP1(=S)c2c(C)nn(CCC#N)c2N=C(c2ccc(F)cc2)N1C (stereo unspecified),inactive: 1.55%

row,SMILES,inhibition
1,O=[N+]([O-])c1ccc2c(c1)nnn2O,inactive: 10.6%
2,CC1CCC(C(C)C)C(OP(=O)(Nc2ccccn2)c2ccccc2)C1 (stereo unspecified),inactive: -9.55%
3,Cc1nn(-c2ccccc2)c2c1P(=O)(N1CCOCC1)N(C)C(c1ccccc1)=N2 (stereo unspecified),inactive: -15.8%
4,CN(C)C1(CNC(=O)c2ccc(S(C)(=O)=O)cc2)CCCCC1,inactive: -18.8%
5,O=C(/C=C/c1ccccc1)OC1CN2CCC1CC2 (stereo unspecified),inactive: -7.21%
6,O=P1(Nc2ncccn2)COc2ccccc2OC1,inactive: -16%
7,Nc1cccc([As](=O)(O)c2ccccc2)c1,inactive: -3.27%
8,O=[As](O)(c1cccs1)c1cccs1,inactive: -9.9%
9,Cc1ccc(OCC(=O)OC2CN3CCC2CC3)cc1 (stereo unspecified),inactive: -19%
10,O=P1(Nc2ccc(Br)cn2)COc2ccccc2OC1,inactive: -3.66%
11,O=P1(Nc2ccccn2)COc2ccccc2OC1,inactive: 5.64%
12,CCOP(=O)(Nc1ccc(C)cn1)OCC,inactive: -9.78%
13,CC(C)(C)C(=O)NC(Sc1ncccn1)C(Cl)(Cl)Cl (stereo unspecified),inactive: -0.42%
14,Clc1n[nH]nc1-c1nn[nH][15n]1,inactive: -7%
15,CC(C)/C=N\N=C(\N)N[N+](=O)[O-],inactive: -2.85%
16,CC1(CBr)Cn2c(nc3ccccc3c2=O)S1 (stereo unspecified),inactive: -20.6%
17,O=[As](O)(c1ccccc1Br)c1ccccc1Br,inactive: -9.38%
18,CC(C)C(=O)NC(Sc1ccccc1)C(Cl)(Cl)Cl (stereo unspecified),inactive: -15.8%
19,O=P(Nc1nccs1)(c1ccccc1)c1ccccc1,inactive: 4.77%
